Patent US7994255B2, “Polyorganiosiloxane-containing graft copolymer, resin compositions containing the same and process for produciton of polyorganosiloxane emulsions” (priority 2003, dated 2011)

Test: Solubility to water of radical polymerization initiators

Row | Substance | Solubility to water at 20° C. (g/100 g of water)
1 | t-butylperoxyisopropyl monocarbonate | 0.02 g/100 g of water
2 | t-hexylperoxyisopropyl monocarbonate | 0.01 g/100 g of water
